The values that follow are results of earlier work, collected in patent publication US7517991B2, “N-sulfonylpiperidine cannabinoid receptor 1 antagonists” (Bristol-Myers Squibb Company, priority 2004, dated 2009).

For the data set the following is noted: chronic administration for two weeks.

`Cc1c(C(=O)NN2CCCCC2)nn(-c2ccc(Cl)cc2Cl)c1-c1ccc(I)cc1` [AM-251]: the adipose tissue mass result is reported as “decreased adipose tissue mass”.
